The experiment has as its target Proto-oncogene tyrosine-protein kinase receptor Ret (Homo sapiens, UniProt P07949). As to the kind of experiment: Inhibition of RET Family Kinases Activity.

The chains behind the UniProt entries cited, without tags or fusion partners.
UniProt P07949, whole entry: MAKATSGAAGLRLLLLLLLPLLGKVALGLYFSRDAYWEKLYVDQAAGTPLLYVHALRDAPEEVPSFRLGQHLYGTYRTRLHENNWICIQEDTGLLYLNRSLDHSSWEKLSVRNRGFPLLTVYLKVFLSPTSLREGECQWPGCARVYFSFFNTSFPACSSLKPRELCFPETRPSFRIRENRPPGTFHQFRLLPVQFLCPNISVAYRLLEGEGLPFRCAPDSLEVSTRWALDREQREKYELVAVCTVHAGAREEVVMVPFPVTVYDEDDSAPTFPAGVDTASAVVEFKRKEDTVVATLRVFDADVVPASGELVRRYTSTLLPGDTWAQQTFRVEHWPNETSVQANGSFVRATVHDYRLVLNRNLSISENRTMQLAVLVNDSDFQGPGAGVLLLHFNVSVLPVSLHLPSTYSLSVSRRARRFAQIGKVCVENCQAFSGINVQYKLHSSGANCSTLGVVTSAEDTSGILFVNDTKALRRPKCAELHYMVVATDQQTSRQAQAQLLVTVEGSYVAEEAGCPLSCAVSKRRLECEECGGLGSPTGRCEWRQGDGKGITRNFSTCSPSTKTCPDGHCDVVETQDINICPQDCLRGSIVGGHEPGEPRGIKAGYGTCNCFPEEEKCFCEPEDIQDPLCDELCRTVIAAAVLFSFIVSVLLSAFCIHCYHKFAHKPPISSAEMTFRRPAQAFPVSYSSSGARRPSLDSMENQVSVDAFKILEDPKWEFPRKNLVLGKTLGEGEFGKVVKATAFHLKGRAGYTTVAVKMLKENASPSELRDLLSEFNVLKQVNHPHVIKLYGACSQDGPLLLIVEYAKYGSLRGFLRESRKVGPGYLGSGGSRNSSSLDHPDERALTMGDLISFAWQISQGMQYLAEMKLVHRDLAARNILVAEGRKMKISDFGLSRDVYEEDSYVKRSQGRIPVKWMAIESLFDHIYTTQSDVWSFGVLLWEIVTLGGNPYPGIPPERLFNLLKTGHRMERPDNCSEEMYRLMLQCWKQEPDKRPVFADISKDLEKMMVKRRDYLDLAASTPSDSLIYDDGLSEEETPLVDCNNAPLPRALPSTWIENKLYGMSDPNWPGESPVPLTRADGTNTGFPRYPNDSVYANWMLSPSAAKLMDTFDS

In general, IC50 refers to the concentration at which inhibition is half-maximal. Low readings indicate greater potency in that assay, high ones weaker potency in that assay.

`COc1ccc(CN2C3CC2CN(c2ccc(-c4cc(N(C)CC(C)(C)O)cn5ncc(C#N)c45)cn2)C3)cn1` [US20230322769, Compound 79] returned a 50% inhibitory concentration (IC50) of 11.8 nM.

Values taken from BindingDB's records for patent US20230322769 (Jiangsu Chia Tai Fenghai Pharmaceutical, 2023).
